# scFv variants of Ab-14 (heavy chain) against a SARS-CoV-2 spike peptide

Target: peptide PDVDLGDISGINAS, taken from heptad repeat 2 (HR2) of SARS-CoV-2 spike.

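The parent was found by panning a naive human phage display library on the peptide. Designed CDR sequences, proposed from the first random library and measured here. Several design methods are mixed in this list. The scFvs were displayed on barcoded MATa yeast, the peptide on MATalpha yeast. After mating in shaken culture at 30 °C for 16 h, diploids were selected and their barcode pairs sequenced. Read counts were normalised to the haploid input and turned into Kd by a linear fit to BCL2-family pairs of known affinity, for each replicate. Mating was done six times.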

Parent scFv Ab-14: VH joined to VL by the linker GGGGSGGGGSGGGGS. Changes lie in the heavy chain CDRs alone.
VH: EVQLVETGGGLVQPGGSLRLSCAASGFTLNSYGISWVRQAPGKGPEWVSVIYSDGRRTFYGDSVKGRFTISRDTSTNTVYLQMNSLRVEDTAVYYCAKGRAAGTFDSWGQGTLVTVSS
VL: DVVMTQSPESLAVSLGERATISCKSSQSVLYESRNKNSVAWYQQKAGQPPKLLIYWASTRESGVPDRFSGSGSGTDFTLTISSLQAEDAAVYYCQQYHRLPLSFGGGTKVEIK

Variants are written as CDR1, CDR2 and CDR3 of the heavy chain (limits as in the source). Parent: GFTLNSYGIS, VIYSDGRRTFYGDSVK, GRAAGTFDS. Variants here have more than six changes. Numbers give log10(Kd / nM), so 0 is 1 nM and 3 is 1 µM. Smaller is tighter. A mean of the replicates is given; it leaves out those without a signal. "no signal" marks a missing value. The strain was present, yet no cells mated with the target were sequenced in any replicate, which points to weak or no binding. In the paper, a design with two or fewer of six values counts as a poor binder. Background: pairings of all heavy chain designs with three empty control strains gave a value in 1% of cases (median 2.08, 5th percentile 0.84). Values in that range, when seen in few replicates, are hard to tell from nonspecific mating. Also given: how often the same scFv was detected with the empty control strains. Values of this round are not directly comparable with the first-round values of the same sequences.

- GRDLESYGIS / VIYADGLRKAYHDSVK / GTNGGVSFV -> no signal (0 of 6 replicates; controls 0 of 18)
- GFDLNEYGIS / VIYADGMRTAYAESVK / GNNAGTFDV -> -0.26 (6 of 6 replicates; controls 0 of 18)
- GFDLNEYGIS / VIYADGVRTAYADSVK / GTVAGTFDI -> -0.88 (6 of 6 replicates; controls 0 of 18)
- GFDLNEYGIS / VIYADGRRTFYADSVK / GEIAGTFFS -> 0.96 (6 of 6 replicates; controls 0 of 18)
- GDDLEDYGIS / VIYADGRRTAYQESVK / GLYAGMLDV -> no signal (0 of 6 replicates; controls 0 of 18)
- GFDLNEYGIS / VIYADGMRTSYADSVK / GQNAGTFDI -> -0.34 (6 of 6 replicates; controls 0 of 18)
- GFDLDEYGIS / VIYADGHRVSYAADVK / GSVEGVDMV -> no signal (0 of 6 replicates; controls 2 of 18)
- GFDLNEYGIS / VIYADGKRTYYADSVK / GQNAGTFDV -> -0.56 (6 of 6 replicates; controls 0 of 18)
- GFDLQEYGIS / VIYADGQRQEYSDDVK / GQTAGHFLH -> no signal (0 of 6 replicates; controls 0 of 18)
- GFDLDEYGIS / VIYADGMRTFYTDSVK / GEEAGTFDA -> -0.10 (6 of 6 replicates; controls 0 of 18)
- GFSLDEYGIS / VIYADGRRTFYADSVK / GNSAGTFDS -> 0.49 (6 of 6 replicates; controls 1 of 18)
- GFELDEYGIS / VIYADGHRRAYADDVK / GMHMGSVQH -> no signal (0 of 6 replicates; controls 0 of 18)
- GFDIDEYGIS / VIYADGKRTFYADSVK / GTNAGTFDV -> -0.29 (6 of 6 replicates; controls 0 of 18)
- GFDLDEYGIS / VIYADGMRTSYADSVK / GNNAGTFDV -> -0.04 (6 of 6 replicates; controls 0 of 18)
- GFDLDEYGIS / VIYADGKRTAYADDVK / GENAGTFDL -> -0.40 (6 of 6 replicates; controls 0 of 18)
- GFDLNEYGIS / VIYADGMRTYYADSVK / GTNAGTFDM -> -0.73 (6 of 6 replicates; controls 0 of 18)
- GFDINEYGIS / VIYADGVRTHYVDDVK / GKHTGVKMM -> 0.40 (1 of 6 replicates; controls 0 of 18)
- GFNLDEYGIS / VIYADGRRTAYQDSVK / GEVAGTFDS -> -0.55 (6 of 6 replicates; controls 0 of 18)
- GFDLNEYGIS / VIYADGRRTQYIDSVK / GNEAGTFDS -> -0.17 (6 of 6 replicates; controls 0 of 18)
- GFDLNEYGIS / VIYADGRRTFYADNVK / GEVAGTFSV -> -0.24 (6 of 6 replicates; controls 1 of 18)
- GFDLNEYGIS / VIYADGMRTAYADSVK / GSNAGTFDV -> -0.41 (6 of 6 replicates; controls 0 of 18)
- GFTLEQYGIS / VIYSDGRSVFYGDSVK / GFAAGAFKQ -> no signal (0 of 6 replicates; controls 0 of 18)
- GFNLDEYGIS / VIYADGARTAYTNKVK / GGNWMISVT -> no signal (0 of 6 replicates; controls 0 of 18)
- GFDLNEYGIS / VIYADGLRTFYADSVK / GKNAGTIDV -> 1.58 (2 of 6 replicates; controls 0 of 18)
- GFDLNEYGIS / VIYADGRRTFYTDSVK / GANAGTFDN -> -0.35 (6 of 6 replicates; controls 2 of 18)
- GFDLNEYGIS / VIYADGRRTAYKDSVK / GEAAGTFDQ -> -0.33 (6 of 6 replicates; controls 0 of 18)
- GFDLNEYGIS / VIYADGMRTAYIDSVK / GEVAGTFDT -> -0.61 (6 of 6 replicates; controls 0 of 18)
- GFDLNEYGIS / VIYADGQRTAYADSVK / GKAAGTFDK -> -0.55 (6 of 6 replicates; controls 0 of 18)
- GFDLNEYGIS / VIYADGRRTFYTDSVK / GGNAGTFDD -> 2.17 (6 of 6 replicates; controls 1 of 18)
- GFDLNEYGIS / VIYADGRRTFYADSVK / GNQAGTFFS -> 2.29 (6 of 6 replicates; controls 0 of 18)
- GFDLNEYGIS / VIYADGQRTAYADDVK / GEVAGTFDL -> -0.25 (6 of 6 replicates; controls 0 of 18)
- GFGLDEYGIS / VIYADGQRKSYTDDVK / GLYTNKKGI -> no signal (0 of 6 replicates; controls 0 of 18)
- GFDLDEYGIS / VIYADGMRTFYADSVK / GELAGTFDS -> -0.57 (6 of 6 replicates; controls 0 of 18)
- GKSIDEYGIS / VIYADGLRTQYSNKVK / GLEGFAFDQ -> 1.66 (1 of 6 replicates; controls 0 of 18)
- GFDLNEYGIS / VIYADGIRTAYSKKFK / GEDGIVLLF -> no signal (0 of 6 replicates; controls 1 of 18)
- GFDLNEYGIS / VIYADGVRTVYADSVK / GGNAGTFDV -> 0.01 (6 of 6 replicates; controls 1 of 18)

2 of these entries, quoted again:

- GFDLNEYGIS / VIYADGRRTFYTDSVK / GANAGTFDN: -0.35 (6 of 6 replicates; controls 2 of 18)
- GFDLQEYGIS / VIYADGQRQEYSDDVK / GQTAGHFLH: no signal (0 of 6 replicates; controls 0 of 18)

Values reported by Li et al. 2023, doi:10.1038/s41467-023-39022-2 (FLAb copy).